Measurements taken from publication PMC2600596 (European journal of pharmacology, 2008).

By UniProt entry, the sequences of proteins in these tests, tags left out.
UniProt P35372, whole entry: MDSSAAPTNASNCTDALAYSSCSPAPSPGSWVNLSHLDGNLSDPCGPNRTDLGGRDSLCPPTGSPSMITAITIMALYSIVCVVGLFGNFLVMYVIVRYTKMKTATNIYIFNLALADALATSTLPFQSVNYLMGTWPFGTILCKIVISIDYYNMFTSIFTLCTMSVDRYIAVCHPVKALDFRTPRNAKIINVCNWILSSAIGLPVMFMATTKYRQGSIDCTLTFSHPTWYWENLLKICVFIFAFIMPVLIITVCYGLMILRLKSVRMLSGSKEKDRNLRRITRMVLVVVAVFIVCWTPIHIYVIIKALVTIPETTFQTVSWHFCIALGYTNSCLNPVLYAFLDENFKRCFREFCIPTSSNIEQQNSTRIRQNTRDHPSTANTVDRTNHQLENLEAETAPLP

Target: hMOR (human mu opioid receptor) (Homo sapiens, UniProt P35372)
Test: cell-based
Type: binding

## Oc1ccc2c3c1O[C@H]1c4[nH]c5ccccc5c4C[C@@]4(O)[C@@H](C2)N(CC2CC2)CC[C@]314 [Naltrindole, naltrindole]
  Ki: 6.1 nM
